Laboratory results reported in patent publication US4916065A (priority 1988, dated 1990).

System: B16 melanoma
Assay: Antitumor activity against B16 melanoma (ip)

Compound | Body weight change on day 5 (0.5 mg/kg/day, Q4D × 3, ip) | MST (median survival time) (0.5 mg/kg/day, Q4D × 3, ip) | T/C (0.5 mg/kg/day, Q4D × 3, ip) | Body weight change on day 5 (1.0 mg/kg/day, Q4D × 3, ip) | MST (median survival time) (1.0 mg/kg/day, Q4D × 3, ip) | T/C (1.0 mg/kg/day, Q4D × 3, ip) | Body weight change on day 5 (0.5 mg/kg/day, QD × 9, ip) | MST (median survival time) (0.5 mg/kg/day, QD × 9, ip) | T/C (0.5 mg/kg/day, QD × 9, ip) | Body weight change on day 5 (1.0 mg/kg/day, QD × 9, ip) | MST (median survival time) (1.0 mg/kg/day, QD × 9, ip) | T/C (1.0 mg/kg/day, QD × 9, ip) | Body weight change on day 5 (2.0 mg/kg/day, Q4D × 3, ip)
COC1=C(C(=O)O)C(C)C23OC24c2cc(OC(C)=O)c5c(c2NC3C#C/C=C\C#CC14)C(=O)c1c(OC(C)=O)ccc(OC(C)=O)c1C5=O (stereo not drawn) [BU-3420T acetate] | +0.5 g | 21.0 days | 156% | -0.3 g | 16.5 days | 122% |  |  |  |  |  |  | 
COC1=C(C(=O)O)C(C)C23OC24c2cc(O)c5c(c2NC3C#C/C=C\C#CC14)C(=O)c1c(O)ccc(O)c1C5=O (stereo not drawn) [BU-3420T] |  |  |  |  |  |  | -0.5 g | 18.5 days | 137% | -0.5 g | 21.5 days | 159% | 
CO[C@@]12[C@H](COC(N)=O)C3=C(C(=O)C(C)=C(N)C3=O)N1C[C@@H]1N[C@@H]12 [Mitomycin C, reference compound] | 0.0 g |  |  | +1.0 g |  |  |  |  |  |  |  |  | +0.5 g
